Measured values published in patent publication US10947213B1 (Merck Patent GmbH, priority 2015, dated 2021).

By UniProt entry, the sequences of proteins in these tests, tags left out. Residues count along the entry.
UniProt Q9NYK1, 27-1049 limits assumed: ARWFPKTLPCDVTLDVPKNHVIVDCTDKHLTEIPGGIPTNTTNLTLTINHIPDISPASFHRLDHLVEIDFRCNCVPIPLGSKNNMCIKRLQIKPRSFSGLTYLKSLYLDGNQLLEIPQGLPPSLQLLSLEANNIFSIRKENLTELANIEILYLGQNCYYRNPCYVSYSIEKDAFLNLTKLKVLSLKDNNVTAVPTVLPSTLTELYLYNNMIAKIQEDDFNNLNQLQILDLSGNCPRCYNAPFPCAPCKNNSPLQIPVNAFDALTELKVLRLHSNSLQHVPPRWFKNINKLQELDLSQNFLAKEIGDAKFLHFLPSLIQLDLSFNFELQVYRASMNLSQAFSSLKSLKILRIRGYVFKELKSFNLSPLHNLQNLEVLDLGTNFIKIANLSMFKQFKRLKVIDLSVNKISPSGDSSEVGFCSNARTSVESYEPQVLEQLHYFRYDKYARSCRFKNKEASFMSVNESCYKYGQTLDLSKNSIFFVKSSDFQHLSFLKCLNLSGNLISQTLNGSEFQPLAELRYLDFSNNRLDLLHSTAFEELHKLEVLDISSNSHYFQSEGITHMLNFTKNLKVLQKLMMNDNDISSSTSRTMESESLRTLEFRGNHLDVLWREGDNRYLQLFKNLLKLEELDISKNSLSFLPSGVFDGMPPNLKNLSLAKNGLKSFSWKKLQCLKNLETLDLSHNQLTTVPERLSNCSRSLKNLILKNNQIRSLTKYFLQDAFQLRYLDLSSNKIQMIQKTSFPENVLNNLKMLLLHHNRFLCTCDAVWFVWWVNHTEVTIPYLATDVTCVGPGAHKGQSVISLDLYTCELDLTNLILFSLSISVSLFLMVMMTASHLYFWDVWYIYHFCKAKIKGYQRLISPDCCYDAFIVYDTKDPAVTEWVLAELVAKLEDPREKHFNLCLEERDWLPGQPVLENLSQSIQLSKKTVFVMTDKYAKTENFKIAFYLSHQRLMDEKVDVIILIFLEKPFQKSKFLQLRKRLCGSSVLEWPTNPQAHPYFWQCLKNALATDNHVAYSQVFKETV

Target: TLR7/NFKb HEK cells (Homo sapiens, UniProt Q9NYK1)
Assay: HEK Cell Assay (TLR7/NFKb reporter, Steady-Glo luciferase readout)
Conditions: read-out: Potency, 30 min compound preincubation, then R*48 agonist for 5 hours
Description: Example 142: HEK Cell Assay
Into 384 CulturePlates (Corning 3707) was placed 5000 c/w of TLR7/NFKb HEK cells in 30 uL DMEM without Phenil red (gibco #31053) and 10% i.a. FCS and 2 mM L-ZGLutamin. The cells were incubated for 24 h at 37° C., 10% carbon dioxide and 90% relative humidity. 3 uL of controls, standards, and compounds were dispensed into wells, incubated for 30 min then 3 uL of R*48 agonist in 20 mM Hepes was added. After incubation for 5 hours, they were allowed to stand at room temperature for 15 min. To this was added 10 uL of Steady-Glo substrate reagent and shake assay plate for 5 min at 1500 rpm. The assay plate was allowed to sit for 30 min at room temperature and then the plate was read on EnVision.

Work on C[C@H]1C[C@H](C(=O)NCCN2CCN(C)CC2)CN(c2ccc(C#N)c3nccnc23)C1 (relative stereo) yielded an IC50 of less than 1000 nM.
